# Binding of CDR-mutated scFvs to a peptide of the spike HR2 region

Data: MIT Lincoln Laboratory AlphaSeq set, Li et al. 2023, doi:10.1038/s41467-023-39022-2, as distributed in FLAb.

Binding partner: SARS-CoV-2 spike HR2 peptide, sequence PDVDLGDISGINAS.

Parent: Ab-14, a human scFv built as VH, three GGGGS repeats, VL. Only the CDRs of the heavy chain vary.
VH: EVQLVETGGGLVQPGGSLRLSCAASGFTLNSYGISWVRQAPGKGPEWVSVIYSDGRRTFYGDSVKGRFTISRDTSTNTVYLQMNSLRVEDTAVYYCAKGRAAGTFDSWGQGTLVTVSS
VL: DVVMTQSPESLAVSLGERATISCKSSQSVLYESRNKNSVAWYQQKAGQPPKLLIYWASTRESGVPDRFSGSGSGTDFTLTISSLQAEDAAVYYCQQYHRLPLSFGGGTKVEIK

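The starting antibody came from a phage panning campaign against this peptide. These sequences belong to a second round, designed from the earlier measurements on random variants of the parent. Their group label is 14H_GP_Gen (GP: Gaussian process model; Gen: genetic algorithm; a sequence that several methods proposed may carry one label only). The scFvs were displayed on barcoded MATa yeast, the peptide on MATalpha yeast. Pairs that bind mate more often; barcode pairs of the diploids are counted by sequencing. The ratio of observed to expected reads was calibrated, replicate by replicate, on BCL2-family standards whose Kd was known from biolayer interferometry. The assay was run in six technical replicates.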

Each variant is given by its three heavy chain CDRs, as the data file delimits them; those of the parent are GFTLNSYGIS, VIYSDGRRTFYGDSVK, GRAAGTFDS. Values are log10 of the apparent Kd in nM; lower means stronger binding. Where no diploid with the target was found in that replicate, the entry reads "ND": below detection, most likely a poor binder, though not proof of it. Empty control strains, which show no peptide, gave a signal in 1% of pairings with all heavy chain designs; the median was 2.08 and 95% of these signals were weaker than 0.84. No background was subtracted. For each scFv, signals with the empty controls are counted beside the result, with their mean in brackets. Of ten entries with the parent sequence, four were seen in most replicates (averages 0.34 to 2.37), three in one and three in none, so single entries are noisy. The range of this assay differs from that of the first round, and the authors advise against merging the two. The authors averaged sequences with at least three values out of six and counted those with two or fewer as poor binders.

CDR-H1 | CDR-H2 | CDR-H3 | log10 Kd, replicates | signal with controls
GFNLNSYGIS | VIYSDGRRTFYGDSVK | GHQAGTFDS | 2.20 / 2.20 / 1.90 / ND / 1.98 / ND | 0/18
GFNLNSYGIS | VIYSDGRRTFYGDSVK | GCQAGTFDS | ND / 2.19 / 2.52 / 1.76 / 1.20 / 1.67 | 2/18 (2.03)
GFELNSYGIS | VIYADGRRTFYGDSVK | GEAAGTFDA | 2.47 / -0.46 / -0.20 / 0.07 / 0.23 / 1.84 | 0/18
GFGLNEYGIS | VIYSDGRRTFYSDSVK | GRQAGTFDS | -0.23 / -0.14 / -0.01 / -0.15 / -0.09 / -0.21 | 0/18
YFSLNEYGIS | VIYSDGRRTFYGDSVK | GRNAGTFDS | 1.76 / 1.30 / 1.58 / 1.30 / 1.77 / 1.44 | 0/18
GFDLNSYGIS | VIYSDGRRTFYIDDVK | GNAAGTFDS | -0.40 / -0.12 / 0.45 / 0.13 / -0.31 / -0.10 | 0/18
GFTLNSYGIS | VIYSDGKRTFYGDSVK | GRQAGTFDT | 0.67 / 2.09 / ND / 1.89 / 0.93 / 0.89 | 0/18
GFTLESYGIS | VIYSDGKRTFYGDSVK | GQAAGTFDS | 0.81 / 0.57 / 1.09 / ND / 0.18 / ND | 0/18
GFSLNSYGIS | VIYSDGRRTFYDDDVK | GRTAGTFDS | 0.83 / 0.09 / 0.39 / 0.24 / 0.51 / 0.80 | 1/18 (1.94)
GFTLNEYGIS | VIYSDGRRTFYGDSVK | GKIAGTFDS | 0.55 / 0.25 / 0.06 / 0.45 / 0.43 / 0.00 | 0/18
GFYLNEYGIS | VIYSDGRRTFYGDSVK | GRTAGTFDK | ND / ND / ND / ND / ND / ND | 0/18
GFDLNSYGIS | VIYSDGQRTFYGDSVK | GKAAGTFDS | 0.88 / -0.03 / 0.30 / 0.67 / 0.08 / 0.23 | 0/18
GFDLNSYGIS | VIYSDGKRTFYGDSVK | GEAAGTFDS | 1.18 / 2.07 / 0.79 / 1.24 / 0.70 / 1.75 | 0/18
GFELNEYGIS | VIYSDGRRTFYHDSVK | GKAAGTFDS | 0.76 / 0.52 / 0.24 / 0.39 / 0.75 / 0.83 | 0/18
GFDLNSYGIS | VIYSDGRRTFYCDSVK | GKTAGTFDS | 0.73 / 0.89 / 0.75 / 1.00 / 0.48 / 0.37 | 0/18
GFSLNAYGIS | VIYSDGRRTFYGDSVK | GQTAGTFDS | 0.46 / 0.66 / 0.11 / 0.32 / 0.02 / 0.32 | 0/18
GFELNSYGIS | VIYSDGRRTFYRDSVK | GQTAGTFDS | 1.34 / 0.68 / 0.10 / ND / -0.05 / 1.54 | 0/18
GFELNSYGIS | VIYSDGRRTFYADSVK | GATAGTFDS | 0.61 / 0.62 / 0.36 / 1.56 / 0.01 / 0.93 | 0/18
GFELNSYGIS | VIYSDGRRTAYKDSVK | GRAAGTFDS | 0.80 / 0.89 / 0.95 / 0.29 / 0.57 / 0.64 | 0/18
GFELNDYGIS | VIYSDGRRTFYGDAVK | GRTAGTFDS | ND / 1.39 / 1.05 / 1.22 / 0.92 / 2.39 | 0/18
GFTLNSYGIS | VIYSDGRRTFYGDDVK | GEAAGTFDT | ND / 0.82 / ND / ND / 2.52 / 1.46 | 0/18
GFDLNSYGIS | VIYSDGRRTAYGDMVK | GRAAGTFDS | -0.10 / 0.37 / ND / ND / 0.76 / 0.48 | 0/18
GFDLNSYGIS | VIYSDGRRTFYVDSVK | GKTAGTFDS | 0.73 / 0.59 / 0.10 / 0.51 / 0.22 / 0.68 | 0/18
GFELMSYGIS | VIYADGRRTFYGDSVK | GRAAGTFDS | 0.22 / 0.01 / -0.21 / -0.46 / 0.00 / -0.14 | 0/18
GFSLNSYGIS | VIYSDGRRTFYGDSVK | GVNAGTFDS | 0.77 / 0.65 / 0.89 / 0.42 / 0.62 / 0.31 | 0/18
GFSLNSYGIS | VIYSDGRRTFYGDSVK | GKTAGTFDD | 0.44 / 0.64 / 0.45 / 0.37 / 0.47 / 0.66 | 0/18
GFDLNSYGIS | VIYSDGKRTFYGDSVK | GRSAGTFDS | 0.62 / 0.60 / ND / 1.27 / 0.71 / 0.87 | 0/18
KFDLNSYGIS | VIYSDGRRTFYDDSVK | GKTAGTFDS | 0.57 / 0.41 / 0.23 / 0.14 / 0.55 / 1.12 | 0/18
GFDLNSYGIS | VIYSDGRRTFYADSVK | GRTAGTFDF | 1.29 / 1.61 / 2.79 / 0.77 / 2.02 / 0.98 | 1/18 (2.48)
GFSLNSYGIS | VIYSDGRRTFYVDSVK | GKVAGTFDS | 0.81 / 1.04 / ND / 0.43 / 0.55 / 1.07 | 0/18
GFSLNSYGIS | VIYSDGRRTFYGDDVK | GNAAGTFDS | 0.20 / 0.01 / 0.31 / 0.23 / 0.39 / 0.30 | 0/18
GFNLNSYGIS | VIYSDGRRTFYADRVK | GRQAGTFDS | 1.17 / 2.22 / 1.13 / 0.77 / 0.89 / 2.52 | 1/18 (1.49)
GFDLNSYGIS | VIYSDGRRTFYQDRVK | GEAAGTFDS | 0.87 / 0.80 / 4.01 / 0.30 / 1.29 / 2.63 | 0/18
AFDLNSYGIS | VIYSDGRRTFYGDSVK | GQTAGTFDS | 0.49 / 1.20 / 0.66 / 0.95 / 0.38 / 0.40 | 0/18
GFSLNSYGIS | VIYADGRRTFYGDNVK | GRTAGTFDS | -0.03 / -0.55 / -0.73 / 0.02 / 0.34 / -0.08 | 0/18
KFNLNSYGIS | VIYSDGRRTFYADSVK | GNAAGTFDS | ND / ND / 1.90 / ND / 3.50 / ND | 0/18
GFDLNSYGIS | VIYSDGRRTFYGDSVK | GFTAGTFDS | 0.31 / 0.15 / -0.03 / 0.07 / -0.09 / 0.12 | 0/18
GFELNSYGIS | VIYSDGRRTFYGDHVK | GRTAGTFDS | 0.47 / ND / 0.65 / 2.61 / 1.64 / 2.64 | 0/18
GFDLNSYGIS | VIYSDGRRTFYADRVK | GKTAGTFDS | 0.27 / 0.20 / 0.17 / 0.39 / -0.18 / 0.22 | 0/18
GFNLNSYGIS | VIYSDGRRTFYGDSVK | GAEAGTFDS | 0.40 / 0.13 / -0.05 / -0.20 / 0.00 / 0.23 | 0/18
GFDLNSYGIS | VIYSDGRRTFYDDSVK | GKTAGTFDS | 0.36 / -0.04 / 0.19 / 0.01 / 0.27 / 0.10 | 0/18
GFDLNSYGIS | VIYSDGRRTWYGDSVK | GRQAGTFDS | ND / 1.81 / 0.77 / 1.20 / 1.76 / 0.86 | 0/18
GFSLNSYGIS | VIYADGRRTFYGDSVK | GKTAGTFDS | -0.33 / -0.23 / -0.19 / -0.53 / -0.22 / -0.08 | 0/18
GFELESYGIS | VIYSDGRRTFYGDSVK | GRTAGTFDS | ND / 1.87 / ND / ND / ND / 1.76 | 0/18
HFDLNSYGIS | VIYSDGRRTFYCDSVK | GRTAGTFDS | ND / 2.29 / 1.38 / 2.14 / 2.27 / 2.78 | 0/18
GFELNSYGIS | VIYSDGRRTFYADDVK | GREAGTFDS | 0.42 / -0.32 / -0.26 / 0.35 / 0.51 / 0.10 | 0/18
GFDLNSYGIS | VIYSDGRRTFYGDSVK | GMAAGTFDS | ND / ND / ND / ND / 0.58 / ND | 0/18
GFSLNEYGIS | VIYSDGRRTFYADMVK | GRTAGTFDS | 0.18 / 0.15 / 0.22 / 0.25 / 0.73 / 1.07 | 0/18
GFDLNSYGIS | VIYSDGRRTFYGDSVK | GRNAGTFDT | 1.93 / 1.66 / 2.65 / 0.16 / 0.19 / 0.43 | 0/18
GFSLNEYGIS | VIYSDGRRTFYGDQVK | GRQAGTFDS | 0.27 / -0.49 / -0.39 / -0.49 / 0.01 / -0.24 | 0/18
GFDLNEYGIS | VIYSDGRRTFYGDSVK | GQAAGTFDK | 0.01 / 0.26 / -0.02 / -0.25 / 0.07 / 0.99 | 1/18 (0.02)
GFDLNSYGIS | VIYSDGRRTAYGDDVK | GRTAGTFDS | 0.10 / -0.10 / -0.06 / -0.11 / -0.05 / -0.07 | 0/18

The last 6 entries again:

| CDR-H1 | CDR-H2 | CDR-H3 | log10 Kd, replicates | signal with controls |
|---|---|---|---|---|
| GFDLNSYGIS | VIYSDGRRTFYGDSVK | GMAAGTFDS | ND / ND / ND / ND / 0.58 / ND | 0/18 |
| GFSLNEYGIS | VIYSDGRRTFYADMVK | GRTAGTFDS | 0.18 / 0.15 / 0.22 / 0.25 / 0.73 / 1.07 | 0/18 |
| GFDLNSYGIS | VIYSDGRRTFYGDSVK | GRNAGTFDT | 1.93 / 1.66 / 2.65 / 0.16 / 0.19 / 0.43 | 0/18 |
| GFSLNEYGIS | VIYSDGRRTFYGDQVK | GRQAGTFDS | 0.27 / -0.49 / -0.39 / -0.49 / 0.01 / -0.24 | 0/18 |
| GFDLNEYGIS | VIYSDGRRTFYGDSVK | GQAAGTFDK | 0.01 / 0.26 / -0.02 / -0.25 / 0.07 / 0.99 | 1/18 (0.02) |
| GFDLNSYGIS | VIYSDGRRTAYGDDVK | GRTAGTFDS | 0.10 / -0.10 / -0.06 / -0.11 / -0.05 / -0.07 | 0/18 |